Results on four compounds are retold here after ChEMBL document CHEMBL1145576, “Synthesis and structure-activity relationship of aminopyrimidine IKK2 inhibitors” (Bioorg Med Chem Lett, 2008).

Bounds are passed on as bounds.

A short description of the assay: Selectivity ratio of IC50 for IKK1 to IC50 for IKK2.
`O=S(=O)(c1ccc(-c2ccnc(Nc3ccc4ncsc4c3)n2)cc1)N1CCSCC1`: the Ratio IC50 worked out at 20.

Take `O=S(=O)(c1ccc(-c2ccnc(Nc3ccc4ncsc4c3)n2)cc1)N1CCOCC1`: the Ratio IC50 turned out to be 18. In the case of `O=S(=O)(c1ccc(-c2ccnc(Nc3ccc4ncsc4c3)n2)cc1)N1CCCC1` it was greater than 18; in that of `O=C(Nc1ccc(-c2ccnc(Nc3ccc4ncsc4c3)n2)cc1)C1CCNCC1`, 5.
